Data: ChEMBL document CHEMBL3862004, “A Cyclic Tetrapeptide ("Cyclodal") and Its Mirror-Image Isomer Are Both High-Affinity μ Opioid Receptor Antagonists” (J Med Chem, 2016)
Active and inactive are the calls of the source.

Legend:
[1] = test system: Rattus norvegicus; experiment: Inhibition of morphine-induced antinociception in Sprague-Dawley rat assessed as reduction in tail withdrawal latency at 5 mg/kg, iv treated 20 mins after morphine addition measured 30 and 60 mins post morphine injection by tail-flick test
[2] = test system: Rattus norvegicus; experiment: Inhibition of morphine-induced analgesia in Sprague-Dawley rat assessed as reduction in fore-paw heat withdrawal threshold at 5 mg/kg, iv treated 20 mins after morphine addition measured 30 mins post morphine injection by hot plate test
[3] = test system: Rattus norvegicus; experiment: Inhibition of morphine-induced analgesia in iv dosed Sprague-Dawley rat assessed as reduction in fore-paw heat withdrawal threshold treated 20 mins after morphine addition measured up to 120 mins post morphine injection by hot plate test
[4] = test system: Rattus norvegicus; experiment: Inhibition of morphine-induced antinociception in iv dosed Sprague-Dawley rat assessed as reduction in tail withdrawal latency treated 20 mins after morphine addition measured up to 120 mins post morphine injection by tail-flick test

Measured: inhibition

Cc1cc(O)cc(C)c1C[C@@H]1NC(=O)[C@H](CCCCN)NC(=O)[C@H](Cc2ccccc2)NC(=O)[C@@H](CCCNC(=N)N)NC1=O
active: [1] | [2] | [3] Dose-dependent effect | [4] Dose-dependent effect
